Measured values as given in patent US20250122502A1, “Bifunctional Molecules and Methods of Using Thereof” (FLAGSHIP PIONEERING, INC., priority 2021, published 2025).

By UniProt entry, the sequences of proteins in these tests, tags left out. Where a name states a change or a piece, a line headed by the entry shows the natural chain unless it says otherwise.
UniProt Q06187: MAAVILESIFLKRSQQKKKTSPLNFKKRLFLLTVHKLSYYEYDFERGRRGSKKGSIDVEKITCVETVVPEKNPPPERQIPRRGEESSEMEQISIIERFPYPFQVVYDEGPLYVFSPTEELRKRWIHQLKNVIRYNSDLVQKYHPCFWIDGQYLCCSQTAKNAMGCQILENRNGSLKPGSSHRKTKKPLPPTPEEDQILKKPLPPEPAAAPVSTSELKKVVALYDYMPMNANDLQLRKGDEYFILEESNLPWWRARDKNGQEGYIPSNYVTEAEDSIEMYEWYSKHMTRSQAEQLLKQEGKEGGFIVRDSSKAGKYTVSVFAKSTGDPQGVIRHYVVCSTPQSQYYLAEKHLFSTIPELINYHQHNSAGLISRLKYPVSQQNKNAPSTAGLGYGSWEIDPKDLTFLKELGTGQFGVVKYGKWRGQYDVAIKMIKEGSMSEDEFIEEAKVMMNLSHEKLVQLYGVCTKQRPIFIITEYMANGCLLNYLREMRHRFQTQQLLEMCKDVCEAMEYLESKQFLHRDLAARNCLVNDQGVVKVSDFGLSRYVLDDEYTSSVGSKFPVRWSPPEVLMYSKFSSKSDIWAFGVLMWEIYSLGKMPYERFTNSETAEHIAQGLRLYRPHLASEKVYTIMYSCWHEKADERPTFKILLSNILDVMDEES

Target: T1, purified BTK protein and Cy5-labeled IVT RNA (Homo sapiens, UniProt Q06187)
T1 construct: purchased Active Motif 81083
Experiment: In vitro ternary complex formation assay (PAGE gel shift)
Type: binding
Conditions: 90 minutes room temperature; for supershift of BTK protein band in the presence of Cy5-IVT RNA (ternary complex): 5 pmol ASOi, 1 pmol BTK, 10 pmol Cy5-IVT RNA
Method: In one reaction (#5), 5 pmol antisense RNA oligo of the sequence 5′CGUUAACUAGGCUUUA3′ (hereafter called N33-ASOi) conjugated at the 5′ end with Ibrutinib was mixed in PBS with 1 pmol purified BTK protein (Active Motif #81083), 200 pmol yeast rRNA (as non-specific blocker) and 10 pmol Cy5-labeled IVT RNA of the sequence 5′[…] […] […] AAGGCGAA3′ (SEQ ID NO: 51).
All reactions were incubated at room temperature for 90 minutes protected from light, then mixed with a loading buffer containing final 0.5% SDS and 10% glycerol, and complexes separated by PAGE on a Bis-Tris 4-12% gel including an IRDye700 pre-stained protein molecular weight marker (LiCor). Immediately following electrophoresis, the gel was imaged using a LiCor Odyssey system with the 700 nm channel to identify the position of Cy5-IVT-RNA bands and MW marker. Subsequently, proteins in the gel were stained using InstantBlue colloidal coomassie stain (Expedeon) and re-imaged using transmitted light. The two images were lined up using size markers and lane positions to identify the relative positions of BTK protein bands and Cy5-IVT target RNA. (FIG. 1)

Substance | increase in MW of the BTK protein band (binary complex formation) (1 pmol BTK protein plus ASOi) | supershift of BTK protein band in the presence of Cy5-IVT RNA (ternary complex)
N33-ASOi: antisense RNA oligo 5′CGUUAACUAGGCUUUA3′ conjugated at the 5′ end with Ibrutinib (5' Ibrutinib conjugate) | binary complex formation | supershift
SCR-ASOi: non-complementary RNA oligo 5′AGAGGUGGCGUGGUAG3′ conjugated at the 5′ end with Ibrutinib (5' Ibrutinib conjugate) | – | complex stayed at arrow B level
